Measured values: patent US20260241020A1, “Antibody-drug conjugate, and preparation method therefor and use thereof” (priority 2023, published 2026)

Tested on: NCI-N87 gastric cancer xenograft
Experiment: Efficacy of anti-human Her2 antibody-drug conjugates in the NCI-N87 subcutaneous tumor-bearing mouse model
Format: in vivo, female Balb/c-Nude mice
Conditions: 1 mg/kg i.v., conjugates of the invention dosed Day 0 and 7, DS8201 Day 0, 7 and 14
Description: NCI-N87 cells were cultured in RPMI 1640 medium supplemented with 10% fetal bovine serum at 37° C. and 5% CO2. NCI-N87 cells in the exponential growth phase were harvested, resuspended in PBS to an appropriate concentration, and then subcutaneously inoculated into female Balb/c-Nude mice to establish a gastric cancer model. […] Each group received the administration via tail vein injection (i.v.). The conjugates of the present invention were administered on Day 0 and Day 7, for a total of two doses. […] After administration, tumor diameters were measured twice a week using a vernier caliper, and tumor volume was calculated according to the following calculation formula: V=0.5 a×b^2, where a and b represent the long diameter and short diameter of the tumor, respectively. Animal mortality was observed and recorded daily.
The tumor growth inhibition rate TGI (%) was calculated using the following formula to evaluate the tumor-inhibitory efficacy of the ADCs:
[formula] • where, • VT end: mean tumor volume of the treatment group at the end of experiment • VT0: mean tumor volume of the treatment group at the beginning of administration • VC end: mean tumor volume of the negative control group at the end of experiment • VC0: mean tumor volume of the negative control group at the beginning of administration […]

DS8201 [reference compound]
TGI (%) tumor growth inhibition rate (Day 27, vs. Vehicle): 91.25% | Tumor volume (mm^3) (x ± SEM) (Day 27): 194.7 ± 48.78 mm^3
